Results reported in patent US20240317853A1 (UNIVERSITY OF TOKYO, published 2024).

Experiments:
Test in all cases: SPR (Biacore 8K), antibody amine-coupled on CM5, CADM1 as analyte, multi-cycle kinetics
[1] = biological target: T1, CADM1FcΔ10 (Δ10 Fc variant formed by fusing human Fc with a CADM1 extracellular domain) (human)
T1 construct: The whole entry is the fusion (CADM1 extracellular domain, AAA linker, human IgG1 hinge-Fc); Dimerized via Fc; also called Fc10; dimerized FcΔ10
Method: (§1) The antibody was diluted with a phosphate buffered saline (PBS) at a concentration of 1 mg/ml, and was then immobilized as a ligand on a sensor chip CM5 by an amine coupling method.

[2] = biological target: T2, CADM1ecΔ9-10 (Δ9-10 variant of a CADM1 extracellular domain) (human, UniProt Q9BY67 45-371)
T2 construct: Monomer; The entry includes C-terminal myc and His tags; also called ec9-10
T2 sequence: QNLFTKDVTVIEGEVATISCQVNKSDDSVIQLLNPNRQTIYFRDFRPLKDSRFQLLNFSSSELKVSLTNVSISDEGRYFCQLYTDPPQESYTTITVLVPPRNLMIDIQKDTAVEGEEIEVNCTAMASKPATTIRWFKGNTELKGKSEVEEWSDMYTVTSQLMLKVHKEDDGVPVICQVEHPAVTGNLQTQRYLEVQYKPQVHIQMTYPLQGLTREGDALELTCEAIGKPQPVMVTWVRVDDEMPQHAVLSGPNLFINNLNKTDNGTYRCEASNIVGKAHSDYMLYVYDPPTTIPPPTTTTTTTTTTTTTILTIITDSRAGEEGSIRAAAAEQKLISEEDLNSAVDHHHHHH
Method: as §1

[3] = biological target: T3, CADM1ecΔ10 (Δ10 variant of a CADM1 extracellular domain) (human, UniProt Q9BY67-3 45-400)
T3 construct: Monomer; The entry includes a C-terminal HHHHHH tag; also called ec10
T3 sequence: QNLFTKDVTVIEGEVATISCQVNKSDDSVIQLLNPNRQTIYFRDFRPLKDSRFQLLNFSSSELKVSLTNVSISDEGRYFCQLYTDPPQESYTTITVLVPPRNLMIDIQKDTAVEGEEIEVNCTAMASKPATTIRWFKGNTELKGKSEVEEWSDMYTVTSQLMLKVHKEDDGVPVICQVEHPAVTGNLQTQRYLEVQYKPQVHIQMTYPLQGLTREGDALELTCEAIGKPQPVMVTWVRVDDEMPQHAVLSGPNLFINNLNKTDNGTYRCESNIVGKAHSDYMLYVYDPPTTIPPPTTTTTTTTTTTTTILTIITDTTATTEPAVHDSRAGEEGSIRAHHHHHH
Method: as §1

B1: YTH-W-2C2 chimeric antibody (antibody, V domains shown)
VH: QVQLQQSGAELAKPGSSVKISCKASGYTFSNYDISWIKQTTGQGLDYIGYIHTGSGGTYYNEKFKGKATLTVDKSSSTAFMQLSSLTPEDTAVYYCARTPYVYYGSGYFDFWGPGTMVTVSS
VL: DIVMTQSPSSLAVSAGETVTINCKSSQSLLYSGNQKNYLAWYQQKPGQSPKLLIYWASTRQSGVPDRFIGSGSGTDFTLTISSVQAEDLAIYYCQQYYDTPDTFGAGTKLELKR
For B1, the koff [1] was 0.00015 s⁻¹, the Kd [2] was 130 nM and the koff [2] was 0.017 s⁻¹. It also gave a Kd [3] of 210 nM.
